Experiments:
[1] = cited from earlier work
HepG2–C3A spheroids = details: 0.04 mg/mg dose, after 48 h
Procedure: Three hundred 21-day old spheroids (corresponding to ~25 million cells or 3.5 mg protein) were gently pipetted (using a cut-tip) into each 10 ml bioreactor before treatment to provide ample material for analysis. To initiate drug treatment, the bioreactor rotation was stopped for 30 s to allow the spheroids to settle to the bottom of the bioreactor. […] Each narrow range experiment was carried out in duplicate and ATP was measured in technical triplicates for each sample. […] Data were normalized to the vehicle-treated control. Error bars in the figures show standard deviation.
Cell viability was measured based on their ability to produce ATP [37]. […] The cells were then lysed with 100 μl of lysis buffer (CellTiter-Glo luminescent cell viability assay, Promega, Fitchburg, WI, Cat. no. G7571) and shaken in the dark for 20 min. Before the luminescence was measured in a FluoStar OPTIMA (BMG Labtech, Ortenberg, Germany) using the following parameters: one kinetic window, 10 measurement cycles with 0.3 s of measurement interval time, 2-s delay per measurement, additional 0.5-s delay per position change (repeated twice for each measured plate). Replicates were performed as described under the ‘Drug treatment’ Section. The data were normalized with reference to a standard curve for ATP and to the untreated control.

[2] = cited from earlier work; remark: listed apart in the source

| SMILES | DILI rank (risk to induce drug-induced liver injury) [1] | ATP produced relative to vehicle control (HepG2–C3A spheroids) | Toxic dose, μg/ml in blood [2] |
| --- | --- | --- | --- |
| O=C(O)Cc1ccccc1Nc1c(Cl)cccc1Cl [Diclofenac] | vMost DILI | – | – |
| [H]/N=C(/N)N/C(=N/[H])NCCc1ccccc1 [Phenformin] | – | 81% | 0.6 µg/mL |

From article PMC7467243, “Response to and recovery from treatment in human liver-mimetic clinostat spheroids: a model for assessing repeated-dose drug toxicity” (Toxicology Research, 2020)
